Inhibition and Activity data for 1 compound are collected here from ChEMBL document CHEMBL5316320, “Discovery of Novel Indazole Chemotypes as Isoform-Selective JNK3 Inhibitors for the Treatment of Parkinson's Disease” (J Med Chem, 2023).

Chains of the proteins cited; added tags and fusions are not shown. Lines headed by an entry give the natural chain unless they say otherwise; changes in a name come on top.
UniProt P45983: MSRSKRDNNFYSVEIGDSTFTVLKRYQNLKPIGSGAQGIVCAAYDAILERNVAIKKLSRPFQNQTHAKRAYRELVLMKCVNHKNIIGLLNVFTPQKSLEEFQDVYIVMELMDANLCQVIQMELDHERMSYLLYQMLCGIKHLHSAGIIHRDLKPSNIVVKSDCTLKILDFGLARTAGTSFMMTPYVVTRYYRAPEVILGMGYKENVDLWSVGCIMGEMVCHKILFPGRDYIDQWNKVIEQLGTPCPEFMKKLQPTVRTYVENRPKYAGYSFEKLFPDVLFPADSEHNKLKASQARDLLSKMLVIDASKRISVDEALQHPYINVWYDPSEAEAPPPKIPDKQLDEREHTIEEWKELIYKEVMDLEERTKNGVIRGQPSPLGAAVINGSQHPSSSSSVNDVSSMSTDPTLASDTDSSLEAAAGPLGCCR
UniProt Q8IVW4: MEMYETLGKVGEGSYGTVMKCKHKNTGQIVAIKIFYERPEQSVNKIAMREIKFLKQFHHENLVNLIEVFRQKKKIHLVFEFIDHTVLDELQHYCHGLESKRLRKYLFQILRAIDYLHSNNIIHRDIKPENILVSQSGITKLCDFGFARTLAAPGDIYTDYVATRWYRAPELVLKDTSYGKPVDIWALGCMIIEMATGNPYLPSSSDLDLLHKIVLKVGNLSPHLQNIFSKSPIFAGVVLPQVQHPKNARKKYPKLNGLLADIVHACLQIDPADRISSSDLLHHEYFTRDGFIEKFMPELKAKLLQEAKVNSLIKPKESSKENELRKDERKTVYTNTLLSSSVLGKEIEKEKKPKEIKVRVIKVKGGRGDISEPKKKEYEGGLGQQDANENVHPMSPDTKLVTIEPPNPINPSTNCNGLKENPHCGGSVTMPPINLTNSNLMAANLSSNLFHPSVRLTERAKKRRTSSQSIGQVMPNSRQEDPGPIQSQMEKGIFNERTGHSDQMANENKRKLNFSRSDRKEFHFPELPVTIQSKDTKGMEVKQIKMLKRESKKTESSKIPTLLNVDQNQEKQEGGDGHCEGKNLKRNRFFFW
UniProt Q9UKE5: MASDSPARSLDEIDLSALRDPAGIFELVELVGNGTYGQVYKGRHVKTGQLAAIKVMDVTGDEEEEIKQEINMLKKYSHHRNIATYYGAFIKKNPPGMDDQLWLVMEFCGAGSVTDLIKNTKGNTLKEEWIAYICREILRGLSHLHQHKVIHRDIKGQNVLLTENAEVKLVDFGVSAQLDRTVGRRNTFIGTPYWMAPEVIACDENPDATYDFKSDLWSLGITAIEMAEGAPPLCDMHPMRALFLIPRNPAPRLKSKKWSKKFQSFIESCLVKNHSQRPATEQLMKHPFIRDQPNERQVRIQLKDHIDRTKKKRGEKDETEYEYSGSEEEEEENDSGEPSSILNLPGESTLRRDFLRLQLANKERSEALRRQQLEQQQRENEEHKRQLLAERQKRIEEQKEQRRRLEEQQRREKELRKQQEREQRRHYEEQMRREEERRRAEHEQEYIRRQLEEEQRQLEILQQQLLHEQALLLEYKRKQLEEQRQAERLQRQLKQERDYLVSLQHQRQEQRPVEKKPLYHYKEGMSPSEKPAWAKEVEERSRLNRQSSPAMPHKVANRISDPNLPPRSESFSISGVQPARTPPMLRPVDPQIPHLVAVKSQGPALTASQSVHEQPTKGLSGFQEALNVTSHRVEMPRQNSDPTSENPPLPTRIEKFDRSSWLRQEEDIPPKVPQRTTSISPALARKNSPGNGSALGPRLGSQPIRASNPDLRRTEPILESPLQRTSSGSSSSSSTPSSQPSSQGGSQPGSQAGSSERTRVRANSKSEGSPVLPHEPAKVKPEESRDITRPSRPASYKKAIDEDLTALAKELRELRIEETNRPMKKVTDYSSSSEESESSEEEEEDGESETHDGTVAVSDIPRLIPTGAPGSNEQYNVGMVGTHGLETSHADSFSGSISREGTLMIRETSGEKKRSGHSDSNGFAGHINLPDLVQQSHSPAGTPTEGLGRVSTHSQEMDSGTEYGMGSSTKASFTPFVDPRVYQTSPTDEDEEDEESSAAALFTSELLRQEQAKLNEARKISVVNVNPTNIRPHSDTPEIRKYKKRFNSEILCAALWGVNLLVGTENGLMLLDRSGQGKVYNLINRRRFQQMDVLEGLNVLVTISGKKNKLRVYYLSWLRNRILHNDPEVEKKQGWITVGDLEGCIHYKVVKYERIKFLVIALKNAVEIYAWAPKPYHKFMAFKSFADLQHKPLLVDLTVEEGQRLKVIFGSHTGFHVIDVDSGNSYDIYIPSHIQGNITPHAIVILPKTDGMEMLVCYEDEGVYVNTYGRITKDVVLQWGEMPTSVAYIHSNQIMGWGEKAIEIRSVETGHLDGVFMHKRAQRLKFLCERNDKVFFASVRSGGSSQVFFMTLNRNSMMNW
UniProt P35916, whole entry: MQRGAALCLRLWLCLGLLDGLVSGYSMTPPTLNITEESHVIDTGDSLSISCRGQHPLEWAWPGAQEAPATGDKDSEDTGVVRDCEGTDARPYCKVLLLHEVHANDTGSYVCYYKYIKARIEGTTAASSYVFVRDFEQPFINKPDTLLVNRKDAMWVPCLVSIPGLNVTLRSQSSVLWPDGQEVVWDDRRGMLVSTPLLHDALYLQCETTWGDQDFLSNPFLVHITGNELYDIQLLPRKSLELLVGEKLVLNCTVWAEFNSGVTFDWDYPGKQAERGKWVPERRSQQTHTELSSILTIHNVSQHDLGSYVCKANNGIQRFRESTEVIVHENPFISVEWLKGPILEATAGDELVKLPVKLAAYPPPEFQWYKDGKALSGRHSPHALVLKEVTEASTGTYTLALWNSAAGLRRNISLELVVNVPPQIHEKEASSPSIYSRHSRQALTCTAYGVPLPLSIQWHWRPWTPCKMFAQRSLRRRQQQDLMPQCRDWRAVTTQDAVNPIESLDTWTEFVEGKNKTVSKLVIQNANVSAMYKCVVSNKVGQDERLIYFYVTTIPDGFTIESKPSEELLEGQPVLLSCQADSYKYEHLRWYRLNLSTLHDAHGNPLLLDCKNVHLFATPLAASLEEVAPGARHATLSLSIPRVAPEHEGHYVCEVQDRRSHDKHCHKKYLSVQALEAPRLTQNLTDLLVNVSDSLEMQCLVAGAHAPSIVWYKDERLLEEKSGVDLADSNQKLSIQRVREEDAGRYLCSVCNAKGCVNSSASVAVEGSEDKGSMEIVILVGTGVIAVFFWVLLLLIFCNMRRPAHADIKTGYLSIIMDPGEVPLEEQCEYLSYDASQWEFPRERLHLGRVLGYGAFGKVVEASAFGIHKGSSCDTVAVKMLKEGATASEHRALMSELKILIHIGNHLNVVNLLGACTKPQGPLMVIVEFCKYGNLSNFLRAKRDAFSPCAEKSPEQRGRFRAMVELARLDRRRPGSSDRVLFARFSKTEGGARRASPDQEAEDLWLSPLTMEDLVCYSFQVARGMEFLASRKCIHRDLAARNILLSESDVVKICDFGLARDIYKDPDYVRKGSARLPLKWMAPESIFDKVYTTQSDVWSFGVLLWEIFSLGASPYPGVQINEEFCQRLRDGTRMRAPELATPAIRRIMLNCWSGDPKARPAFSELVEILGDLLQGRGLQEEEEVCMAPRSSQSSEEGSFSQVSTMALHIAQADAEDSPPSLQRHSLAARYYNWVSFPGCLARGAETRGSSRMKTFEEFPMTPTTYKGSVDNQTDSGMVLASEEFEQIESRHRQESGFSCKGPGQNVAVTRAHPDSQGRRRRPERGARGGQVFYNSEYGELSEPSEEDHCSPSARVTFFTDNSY

Activity calls are given as the source filed them. No cut-off for these calls is given here.

Assay [1] has as its target T1, Mitogen-activated protein kinase 8 (Homo sapiens, UniProt P45983). The experiment in a line: Inhibition of JNK1 (unknown origin) at 1 uM by kinase profiling assay relative to control.
The target in assay [2] is Cyclin-dependent kinase-like 3 (Homo sapiens, UniProt Q8IVW4). Description: Inhibition of CDKL3 (unknown origin) at 1 uM by kinase profiling assay relative to control.
Assay [3] addresses TRAF2 and NCK-interacting protein kinase (Homo sapiens, UniProt Q9UKE5). Description: Inhibition of TNIK (unknown origin) at 1 uM by kinase profiling assay relative to control.
For assay [4], the target named is T1, Mitogen-activated protein kinase 8. Description: Stabilization of JNK1 in human SH-SY5Y cells at 30 uM incubated for 6 hrs by CETSA. The class given is cell-based.
Assay [5] deals with Vascular endothelial growth factor receptor 3 (Homo sapiens, UniProt P35916). The experiment in a line: Inhibition of FLT4 (unknown origin) at 1 uM by kinase profiling assay relative to control.
The target in assay [6] is T2, Mitogen-activated protein kinase 9 (Homo sapiens, UniProt P45984). Description: Inhibition of JNK2 (unknown origin) at 1 uM by kinase profiling assay relative to control.
Assay [7] addresses T3, Serine/threonine-protein kinase D3 (Homo sapiens) (UniProt O94806).
T3 sequence (whole entry): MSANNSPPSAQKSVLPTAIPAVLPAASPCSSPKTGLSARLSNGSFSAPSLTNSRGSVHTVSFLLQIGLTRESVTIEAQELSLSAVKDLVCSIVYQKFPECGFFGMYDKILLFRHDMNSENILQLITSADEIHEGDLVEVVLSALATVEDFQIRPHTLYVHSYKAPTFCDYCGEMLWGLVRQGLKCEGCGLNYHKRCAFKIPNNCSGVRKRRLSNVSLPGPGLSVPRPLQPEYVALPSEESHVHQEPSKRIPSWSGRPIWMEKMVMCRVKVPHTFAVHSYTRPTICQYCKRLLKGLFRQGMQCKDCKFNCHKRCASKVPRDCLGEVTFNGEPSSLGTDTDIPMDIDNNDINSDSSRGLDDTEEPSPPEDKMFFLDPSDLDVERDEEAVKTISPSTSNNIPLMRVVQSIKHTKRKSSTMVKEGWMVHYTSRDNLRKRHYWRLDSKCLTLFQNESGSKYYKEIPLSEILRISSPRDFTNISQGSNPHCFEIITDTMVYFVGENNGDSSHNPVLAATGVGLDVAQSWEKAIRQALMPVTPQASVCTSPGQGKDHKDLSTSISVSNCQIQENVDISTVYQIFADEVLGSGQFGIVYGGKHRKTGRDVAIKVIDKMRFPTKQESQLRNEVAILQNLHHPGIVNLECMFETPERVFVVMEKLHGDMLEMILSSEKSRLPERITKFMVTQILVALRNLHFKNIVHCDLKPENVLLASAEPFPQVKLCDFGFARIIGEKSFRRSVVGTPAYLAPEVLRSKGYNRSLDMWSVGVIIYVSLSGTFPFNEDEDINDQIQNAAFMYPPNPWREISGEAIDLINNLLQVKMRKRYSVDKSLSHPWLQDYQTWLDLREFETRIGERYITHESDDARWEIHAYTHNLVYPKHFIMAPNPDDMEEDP
Description: Inhibition of PKD3 (unknown origin) at 1 uM by kinase profiling assay relative to control.

Assay [8] addresses T2, Mitogen-activated protein kinase 9. Description: Stabilization of JNK2 in human SH-SY5Y cells at 30 uM incubated for 6 hrs by CETSA. The class given is cell-based.

By inhibition is commonly meant the relative decrease from the control value, in per cent. Low readings indicate a weak effect, high ones a strong effect. As to `O=C(c1cccc(CNc2n[nH]c3cccc(Cl)c23)c1)N1CCN(C(=O)c2ccc(Cl)cc2Cl)CC1`, the inhibition came to 16.1% in assay [1]; 61.2% in assay [2]; 77.1% in assay [3]; 74.9% in assay [5]; 21.3% in assay [6]; 63.6% in assay [7]. Further, the result in assay [4] and in assay [8] was inactive.
